Experimental data as given in patent publication US6936585B2, “Corticotropin releasing factor 2 receptor agonists” (priority 2002, dated 2005).

What was measured:
[1] = target: T1, CRF2R (Homo sapiens, UniProt Q13324); test: CRF2R agonist activation (EC50 / Emax), called comparative CRF binding; format: cell-based; conditions: read-out: CRF2R Emax
T1 sequence (Q13324 1-411): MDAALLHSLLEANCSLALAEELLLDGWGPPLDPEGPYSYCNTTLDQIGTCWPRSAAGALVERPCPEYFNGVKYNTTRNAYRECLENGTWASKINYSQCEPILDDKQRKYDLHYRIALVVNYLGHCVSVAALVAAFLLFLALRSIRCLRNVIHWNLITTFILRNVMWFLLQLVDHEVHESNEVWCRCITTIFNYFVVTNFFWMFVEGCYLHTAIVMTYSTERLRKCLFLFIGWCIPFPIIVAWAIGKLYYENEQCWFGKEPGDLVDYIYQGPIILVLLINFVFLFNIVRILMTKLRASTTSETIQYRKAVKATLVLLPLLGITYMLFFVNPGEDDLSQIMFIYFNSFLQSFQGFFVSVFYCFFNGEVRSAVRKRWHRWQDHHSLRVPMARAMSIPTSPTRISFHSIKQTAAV
Outline: (§1)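 Agonism is scored from cAMP rise, assayed in lysates or through CRE-driven reporter expression, after peptide contact with cells bearing human CRF2R or CRF1R, compared against vehicle-treated cells.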

[2] = target: T2, CRF1R (Homo sapiens, UniProt P34998); test: CRF1R agonist activation (EC50 / Emax), called comparative CRF binding; format: cell-based; conditions: read-out: CRF1R Emax
T2 sequence (P34998 24-415): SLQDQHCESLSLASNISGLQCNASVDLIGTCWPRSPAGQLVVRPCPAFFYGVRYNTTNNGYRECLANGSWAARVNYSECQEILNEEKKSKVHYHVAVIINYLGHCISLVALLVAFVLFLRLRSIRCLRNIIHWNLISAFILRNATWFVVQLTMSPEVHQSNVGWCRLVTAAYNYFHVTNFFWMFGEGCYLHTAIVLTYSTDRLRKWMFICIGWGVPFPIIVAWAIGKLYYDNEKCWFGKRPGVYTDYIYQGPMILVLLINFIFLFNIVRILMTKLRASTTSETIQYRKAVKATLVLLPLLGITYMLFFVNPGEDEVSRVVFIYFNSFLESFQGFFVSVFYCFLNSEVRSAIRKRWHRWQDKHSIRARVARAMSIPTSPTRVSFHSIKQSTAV
Outline: as §1

| Compound | Emax [1] [%] | Emax [2] [%] |
| --- | --- | --- |
| CC[C@H](C)[C@H](NC(=O)[C@@H](NC(=O)[C@H](CC(=O)O)NC(=O)[C@H](CC(C)C)NC(=O)[C@H](CC(C)C)NC(=O)[C@H](CC(C)C)NC(=O)[C@H](CCCNC(=N)N)NC(=O)[C@H](CC(N)=O)NC(=O)[C@H](CC(N)=O)NC(=O)[C@H](C)NC(=O)[C@H](C)NC(=O)[C@H](CCC(N)=O)NC(=O)[C@H](CCC(N)=O)NC(=O)[C@H](CCCCN)NC(=O)[C@H](CCC(=O)O)NC(=O)[C@H](CCCCN)NC(=O)[C@H](CCC(=O)O)NC(=O)[C@H](CCC(N)=O)NC(=O)[C@H](CCCCN)NC(=O)[C@H](CCC(=O)O)NC(=O)[C@@H](NC(=O)[C@H](CCC(=O)O)NC(=O)[C@@H](NC(=O)[C@H](CCSC)NC(=O)[C@H](CCCCN)NC(=O)[C@H](CCCNC(=N)N)NC(=O)[C@H](CC(C)C)NC(=O)[C@H](CC(C)C)NC(=O)[C@H](CCCNC(=N)N)NC(=O)[C@@H](NC(=O)[C@@H]1CCCN1C(=O)[C@H](CC(C)C)NC(=O)[C@H](CC(=O)O)NC(=O)[C@@H](NC(=O)[C@H](CO)NC(=O)[C@@H](NC(=O)[C@@H]1CCCN1C(=O)[C@@H]1CCCN1C(=O)CNC(=O)[C@@H]1CCC(=O)N1)[C@@H](C)CC)[C@@H](C)CC)[C@@H](C)O)[C@@H](C)CC)[C@@H](C)CC)[C@@H](C)O)C(N)=O [compound 60] | 44 | 8 |
| CC[C@H](C)[C@H](NC(=O)[C@@H](NC(=O)[C@H](CC(=O)O)NC(=O)[C@H](CC(C)C)NC(=O)[C@H](CC(C)C)NC(=O)[C@H](CC(C)C)NC(=O)[C@H](CCCNC(=N)N)NC(=O)[C@H](CC(N)=O)NC(=O)[C@H](CC(N)=O)NC(=O)[C@H](C)NC(=O)[C@H](C)NC(=O)[C@H](CCC(N)=O)NC(=O)[C@H](CCC(N)=O)NC(=O)[C@H](CCCCN)NC(=O)[C@H](CCC(=O)O)NC(=O)[C@H](CCCCN)NC(=O)[C@H](CCC(=O)O)NC(=O)[C@H](CCC(N)=O)NC(=O)[C@H](CCCCN)NC(=O)[C@H](CCC(=O)O)NC(=O)[C@@H](NC(=O)[C@H](CCC(=O)O)NC(=O)[C@@H](NC(=O)[C@H](CCSC)NC(=O)[C@H](CCCCN)NC(=O)[C@H](CCCNC(=N)N)NC(=O)[C@H](CC(C)C)NC(=O)[C@H](CC(C)C)NC(=O)[C@@H](NC(=O)[C@H](Cc1ccc(O)cc1)NC(=O)[C@@H]1CCCN1C(=O)[C@H](CC(C)C)NC(=O)[C@H](CC(=O)O)NC(=O)[C@@H](NC(=O)[C@H](CO)NC(=O)[C@@H](NC(=O)[C@@H]1CCCN1C(=O)[C@@H]1CCCN1C(=O)CNC(=O)[C@@H]1CCC(=O)N1)[C@@H](C)CC)[C@@H](C)CC)[C@@H](C)CC)[C@@H](C)CC)[C@@H](C)CC)[C@@H](C)O)C(N)=O [compound 204] | 93 | 74 |
| CC[C@H](C)[C@H](NC(=O)[C@@H](NC(=O)[C@H](CC(=O)O)NC(=O)[C@H](CC(C)C)NC(=O)[C@H](CC(C)C)NC(=O)[C@H](CC(C)C)NC(=O)[C@H](CCCNC(=N)N)NC(=O)[C@H](CC(N)=O)NC(=O)[C@H](CC(N)=O)NC(=O)[C@H](C)NC(=O)[C@H](C)NC(=O)[C@H](CCC(N)=O)NC(=O)[C@H](CCC(N)=O)NC(=O)[C@H](CCCCN)NC(=O)[C@H](CCC(=O)O)NC(=O)[C@H](CCCCN)NC(=O)[C@H](CCC(=O)O)NC(=O)[C@H](CCC(N)=O)NC(=O)[C@H](CCCCN)NC(=O)[C@H](CCC(=O)O)NC(=O)[C@@H](NC(=O)[C@H](CCC(=O)O)NC(=O)[C@@H](NC(=O)[C@H](CCSC)NC(=O)[C@H](CCCCN)NC(=O)[C@H](CCCNC(=N)N)NC(=O)[C@H](CC(C)C)NC(=O)[C@H](CC(C)C)NC(=O)[C@@H](NC(=O)[C@H](CCC(N)=O)NC(=O)[C@@H]1CCCN1C(=O)[C@H](CC(C)C)NC(=O)[C@H](CC(=O)O)NC(=O)[C@@H](NC(=O)[C@H](CO)NC(=O)[C@@H](NC(=O)[C@@H]1CCCN1C(=O)[C@@H]1CCCN1C(=O)CNC(=O)[C@@H]1CCC(=O)N1)[C@@H](C)CC)[C@@H](C)CC)[C@@H](C)CC)[C@@H](C)CC)[C@@H](C)CC)[C@@H](C)O)C(N)=O [compound 199] | 92 | 93 |
